Sequences of proteins named here, by UniProt entry; tags and fusion partners are left off. Residues count along the entry.
UniProt Q9F663, 25-293 limits assumed: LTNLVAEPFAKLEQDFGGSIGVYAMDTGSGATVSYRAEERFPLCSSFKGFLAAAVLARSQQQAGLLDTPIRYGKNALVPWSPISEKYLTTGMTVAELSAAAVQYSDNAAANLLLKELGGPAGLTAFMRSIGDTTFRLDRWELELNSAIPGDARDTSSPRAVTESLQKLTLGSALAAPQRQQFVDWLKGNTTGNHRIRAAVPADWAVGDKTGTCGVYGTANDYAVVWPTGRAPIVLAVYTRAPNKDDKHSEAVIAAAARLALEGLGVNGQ
UniProt C7C422, 29-270 limits assumed: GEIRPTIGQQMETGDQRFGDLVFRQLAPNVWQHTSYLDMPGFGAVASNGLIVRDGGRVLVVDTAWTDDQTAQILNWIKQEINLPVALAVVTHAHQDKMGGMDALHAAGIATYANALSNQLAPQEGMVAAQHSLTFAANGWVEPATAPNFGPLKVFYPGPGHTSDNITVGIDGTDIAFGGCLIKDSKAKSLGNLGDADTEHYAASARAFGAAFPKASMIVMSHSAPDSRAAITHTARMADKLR

According to article PMC10648875 (Antimicrobial Agents and Chemotherapy, 2023):

Assays:
KPC-2 = KPC-2 (Klebsiella pneumoniae, UniProt Q9F663); assay: Ki app of β-lactamase inhibition, purified enzyme; assay type: biochemical
Description: (§1) The majority of purified β-lactamase enzymes used in the study were either expressed and purified internally ([35]) or obtained from Emerald Biostructures (Bainbridge Island, WA, USA). L1 enzyme was purified as described in reference ([36]).
(§2) Enzymes were mixed with BLIs at concentrations varying from 160 to 0.0027 µM in 50-mM Na-phosphate pH7.0, 0.1-mg/mL bovide serum albumin (BSA) (buffer A; 20-µM ZnCl2 was also added for all metalloenzymes) and incubated for 10 minutes at 37°C. Nitrocefin (50 µM) (10 µM for SHV-12) or 100 µM of imipenem (prewarmed at 37°C for 10 minutes) was added, and substrate cleavage profiles were recorded at 37°C at 490 nm every 10 seconds for 10 minutes or at 294 nm every 30 seconds for 1 hour for nitrocefin and imipenem, respectively. […] Ki app values (Ki for metalloenzymes) were calculated by the method of Waley ([37]).

[1] = molecular target: T1, NDM-1 in whole cells of KP1081 (functional OmpK36) (Klebsiella pneumoniae, UniProt C7C422); assay: cell-based; set-up: species or system K. pneumoniae
T1 construct: endogenous in cells; host or cells: K. pneumoniae KP1081

NDM-1 (lysate of KP1081) = molecular target: T2, NDM-1 (lysate of KP1081) (Klebsiella pneumoniae, UniProt C7C422); assay: biochemical; set-up: species or system K. pneumoniae
T2 construct: endogenous in cells; host or cells: K. pneumoniae KP1081

NDM-1 = NDM-1 (Klebsiella pneumoniae, UniProt C7C422); assay: biochemical
Description: as §1, §2

| SMILES | Ki (KPC-2) | IC50 [1] | IC50 (NDM-1 (lysate of KP1081)) | Ki (NDM-1) |
| --- | --- | --- | --- | --- |
| O=C(NC1CCNCC1)[C@@H]1CC[C@@H]2CN1C(=O)N2OS(=O)(=O)O [Relebactam, relebactam] | 0.04 ± 0.008 µM | – | – | – |
| O=C(O)c1c(F)ccc2c1OB(O)[C@@H]1C[C@H]21 [Xeruborbactam, xeruborbactam] | – | 16.6 ± 1 µM | 0.77 ± 0.12 µM | 0.0075 ± 0.0021 µM |
